Experimental data: patent US20240360082A1, “SUBSTITUTED PYRIDONE COMPOUNDS USEFUL TO TREAT ORTH[…]” (priority 2021, published 2024)
Where two headings read alike, the source gives them in different places.

Tested on: influenza virus (multiple flu strains)
Test: organism not typed
Settings: MDCK
[1] = read-out: NA Alaska H3N2, NA assay, Alaska H3N2 strain
[2] = read-out: NA CAL H1N1, NA assay, CAL H1N1 strain
[3] = read-out: NA—PR8 H1N1, NA assay, PR8 H1N1 strain
[4] = read-out: NA Alaska H3N2 IC50, NA assay, Alaska H3N2 strain
[5] = read-out: NA CAL H1N1 IC50, NA assay, CAL H1N1 strain

| SMILES | IC50 [1] [nM] | IC50 [2] [nM] | IC50 [3] [nM] | IC50 [4] [nM] | IC50 [5] [nM] |
| --- | --- | --- | --- | --- | --- |
| NC(=O)c1cc(-c2ccc(OCc3cnc4nncn4c3)cc2)c(C(F)(F)F)[nH]c1=O [Example 103, 5-(4-([1,2,4]triazolo[4,3-a]pyrimidin-6-ylmethoxy)phenyl)-2-oxo-6-(trifluoromethyl)-1,2-dihydropyridine-3-carboxamide] | 1000 to 5000 | 25000 to 50000 | – | – | – |
| COc1c(C)cnc(COc2ccc(-c3cc(C(N)=O)c(=O)[nH]c3C(F)(F)F)cc2)c1C [Example 113, 5-(4-((4-methoxy-3,5-dimethylpyridin-2-yl)methoxy)phenyl)-2-oxo-6-(trifluoromethyl)-1,2-dihydropyridine-3-carboxamide] | 1000 to 5000 | 5000 to 10000 | – | – | – |
| Cc1cc(COc2ccc(-c3cc(C(N)=O)c(=O)[nH]c3C(F)(F)F)cc2)cc(C)n1 [Example 147, 5-(4-((2,6-dimethylpyridin-4-yl)methoxy)phenyl)-2-oxo-6-(trifluoromethyl)-1,2-dihydropyridine-3-carboxamide] | 1000 to 5000 | 10000 to 25000 | – | – | – |
| NC(=O)c1cc(-c2ccccc2)c(C(F)(F)F)[nH]c1=O [Example 16, 2-oxo-5-phenyl-6-(trifluoromethyl)-1,2-dihydropyridine-3-carboxamide] | – | – | 1000 to 5000 | – | – |
| NC(=O)c1cc(-c2ccc(OC3CC4(COC4)C3)cc2)c(C(F)(F)F)[nH]c1=O [Example 230, 5-(4-((2-oxaspiro[3.3]heptan-6-yl)oxy)phenyl)-2-oxo-6-(trifluoromethyl)-1,2-dihydropyridine-3-carboxamide] | – | – | – | 1000 to 5000 | 5000 to 10000 |
| NC(=O)c1cc(-c2ccc(OCc3cncc(Cl)c3)cc2)c(C(F)(F)F)[nH]c1=O [Example 213, 5-(4-((5-chloropyridin-3-yl)methoxy)phenyl)-2-oxo-6-(trifluoromethyl)-1,2-dihydropyridine-3-carboxamide] | – | – | – | 10 to 100 | 100 to 1000 |
| NC(=O)c1cc(-c2ccc(OCc3cncc(Cl)n3)cc2)c(C(F)(F)F)[nH]c1=O [Example 216, 5-(4-((6-chloropyrazin-2-yl)methoxy)phenyl)-2-oxo-6-(trifluoromethyl)-1,2-dihydropyridine-3-carboxamide] | – | – | – | 10 to 100 | 100 to 1000 |
| COC[C@@]1(C)COC[C@@H](COc2ccc(-c3cc(C(N)=O)c(=O)[nH]c3C(F)(F)F)cc2)O1 [Example 405, 5-(4-(((2S,6S)-6-(methoxymethyl)-6-methyl-1,4-dioxan-2-yl)methoxy)phenyl)-2-oxo-6-(trifluoromethyl)-1,2-dihydropyridine-3-carboxamide] | – | – | – | < 10 | < 10 |
| NC(=O)c1cc(-c2ccc(OCc3cc(Cl)cnc3F)cc2)c(C(F)(F)F)[nH]c1=O [Example 104, 5-(4-((5-chloro-2-fluoropyridin-3-yl)methoxy)phenyl)-2-oxo-6-(trifluoromethyl)-1,2-dihydropyridine-3-carboxamide] | 100 to 1000 | 100 to 1000 | – | – | – |
| NC(=O)c1cc(-c2ccc(OCC(=O)N3CCOCC3)cc2)c(C(F)(F)F)[nH]c1=O [Example 199, 5-(4-(2-morpholino-2-oxoethoxy)phenyl)-2-oxo-6-(trifluoromethyl)-1,2-dihydropyridine-3-carboxamide] | 1000 to 5000 | 25000 to 50000 | – | – | – |
| COc1cc(-c2cc(C(N)=O)c(=O)[nH]c2C(F)(F)F)ccc1OCC1COCCO1 (stereo not shown) [Example 244, 5-(4-((1,4-dioxan-2-yl)methoxy)-3-methoxyphenyl)-2-oxo-6-(trifluoromethyl)-1,2-dihydropyridine-3-carboxamide] | – | – | – | 10000 to 25000 | – |
| COc1ccnc(COc2ccc(-c3cc(C(N)=O)c(=O)[nH]c3C(F)(F)F)cc2)c1OC [Example 144, 5-(4-((3,4-dimethoxypyridin-2-yl)methoxy)phenyl)-2-oxo-6-(trifluoromethyl)-1,2-dihydropyridine-3-carboxamide] | 1000 to 5000 | 5000 to 10000 | – | – | – |
| CC(C)(C)OC(=O)N1CCOC(COc2ccc(-c3cc(C(N)=O)c(=O)[nH]c3C(F)(F)F)cc2)C1 (stereo not shown) [Example 190, tert-butyl 2-((4-(5-carbamoyl-6-oxo-2-(trifluoromethyl)-1,6-dihydropyridin-3-yl)phenoxy)methyl)morpholine-4-carboxylate] | 100 to 1000 | 5000 to 10000 | – | – | – |
| NC(=O)c1cc(-c2ccc(OCc3ccc4nonc4c3)cc2)c(C(F)(F)F)[nH]c1=O [Example 71, 5-(4-(benzo[c][1,2,5]oxadiazol-5-ylmethoxy)phenyl)-2-oxo-6-(trifluoromethyl)-1,2-dihydropyridine-3-carboxamide] | 100 to 1000 | 10 to 100 | – | – | – |
| COCc1ccc(-c2cc(C(N)=O)c(=O)[nH]c2C(F)(F)F)cc1 [Example 15, 5-(4-(methoxymethyl)phenyl)-2-oxo-6-(trifluoromethyl)-1,2-dihydropyridine-3-carboxamide] | – | – | 1000 to 5000 | – | – |
| NC(=O)c1cc(-c2ccc(OCc3cncc(Br)c3)cc2)c(C(F)(F)F)[nH]c1=O [Example 212, 5-(4-((5-bromopyridin-3-yl)methoxy)phenyl)-2-oxo-6-(trifluoromethyl)-1,2-dihydropyridine-3-carboxamide] | – | – | – | 10 to 100 | 100 to 1000 |

| SMILES | IC50 [1] [nM] | IC50 [2] [nM] | IC50 [3] [nM] | IC50 [4] [nM] | IC50 [5] [nM] |
| --- | --- | --- | --- | --- | --- |
| NC(=O)c1cc(-c2ccc(OCC3CCCCO3)cc2)c(C(F)(F)F)[nH]c1=O (stereo not shown) [Example 236, 2-oxo-5-(4-((tetrahydro-2H-pyran-2-yl)methoxy)phenyl)-6-(trifluoromethyl)-1,2-dihydropyridine-3-carboxamide] | – | – | – | 100 to 1000 | 100 to 1000 |
| CCCOc1ncc(COc2ccc(-c3cc(C(N)=O)c(=O)[nH]c3C(F)(F)F)cc2)cn1 [Example 153, 2-oxo-5-(4-((2-propoxypyrimidin-5-yl)methoxy)phenyl)-6-(trifluoromethyl)-1,2-dihydropyridine-3-carboxamide] | 100 to 1000 | 1000 to 5000 | – | – | – |
| NC(=O)c1cc(-c2ccc(OCc3ccc4no[n+]([O-])c4c3)cc2)c(C(F)(F)F)[nH]c1=O [Example 94] | 100 to 1000 | 100 to 1000 | – | – | – |
| NC(=O)c1cc(-c2ccc(OCc3cncnc3NC3CCCC3)cc2)c(C(F)(F)F)[nH]c1=O [Example 174, 5-(4-((4-(cyclopentylamino)pyrimidin-5-yl)methoxy)phenyl)-2-oxo-6-(trifluoromethyl)-1,2-dihydropyridine-3-carboxamide] | 100 to 1000 | 1000 to 5000 | – | – | – |
| NC(=O)c1cc(-c2ccc(OCC3CNCCCO3)cc2)c(C(F)(F)F)[nH]c1=O (stereo not shown) [Example 195, 5-(4-((1,4-oxazepan-2-yl)methoxy)phenyl)-2-oxo-6-(trifluoromethyl)-1,2-dihydropyridine-3-carboxamide] | 5000 to 10000 | – | – | – | – |
| CCCCNC(=O)COc1ccc(-c2cc(C(N)=O)c(=O)[nH]c2C(F)(F)F)cc1 [Example 200, 5-(4-(2-(butylamino)-2-oxoethoxy)phenyl)-2-oxo-6-(trifluoromethyl)-1,2-dihydropyridine-3-carboxamide] | 1000 to 5000 | 25000 to 50000 | – | – | – |
| COC[C@@]1(C)COC[C@H](COc2ccc(-c3cc(C(N)=O)c(=O)[nH]c3C(F)(F)F)cc2)O1 [Example 408, 5-(4-(((2R,6S)-6-(methoxymethyl)-6-methyl-1,4-dioxan-2-yl)methoxy)phenyl)-2-oxo-6-(trifluoromethyl)-1,2-dihydropyridine-3-carboxamide] | – | – | – | 10 to 100 | 100 to 1000 |
| NC(=O)c1cc(-c2ccc(OCc3cnc(OC4CCCC4)nc3)cc2)c(C(F)(F)F)[nH]c1=O [Example 155, 5-(4-((2-(cyclopentyloxy)pyrimidin-5-yl)methoxy)phenyl)-2-oxo-6-(trifluoromethyl)-1,2-dihydropyridine-3-carboxamide] | 100 to 1000 | 1000 to 5000 | – | – | – |
| NC(=O)c1cc(-c2ccc(OCCN3CCOCC3)cc2)c(C(F)(F)F)[nH]c1=O [Example 259, 5-(4-(2-morpholinoethoxy)phenyl)-2-oxo-6-(trifluoromethyl)-1,2-dihydropyridine-3-carboxamide] | – | – | – | 100 to 1000 | 5000 to 10000 |
| NC(=O)c1cc(-c2ccc(OCc3cncc(C4CCOC4)c3)cc2)c(C(F)(F)F)[nH]c1=O (stereo not shown) [Example 180, 2-oxo-5-(4-((5-(tetrahydrofuran-3-yl)pyridin-3-yl)methoxy)phenyl)-6-(trifluoromethyl)-1,2-dihydropyridine-3-carboxamide] | 100 to 1000 | 1000 to 5000 | – | – | – |
| NC(=O)c1cc(-c2ccc(OCc3cc(Cl)ccn3)cc2)c(C(F)(F)F)[nH]c1=O [Example 117, 5-(4-((4-chloropyridin-2-yl)methoxy)phenyl)-2-oxo-6-(trifluoromethyl)-1,2-dihydropyridine-3-carboxamide] | 100 to 1000 | 10 to 100 | – | – | – |
| Cn1cc(COc2ccc(-c3cc(C(N)=O)c(=O)[nH]c3C(F)(F)F)cc2)c(C(F)(F)F)n1 [Example 109, 5-(4-((1-methyl-3-(trifluoromethyl)-1H-pyrazol-4-yl)methoxy)phenyl)-2-oxo-6-(trifluoromethyl)-1,2-dihydropyridine-3-carboxamide] | 1000 to 5000 | 100 to 1000 | – | – | – |
| NC(=O)c1cc(-c2ccc(OCC3CN(CC4CC4)CCO3)cc2)c(C(F)(F)F)[nH]c1=O (stereo not shown) [Example 194, 5-(4-((4-(cyclopropylmethyl)morpholin-2-yl)methoxy)phenyl)-2-oxo-6-(trifluoromethyl)-1,2-dihydropyridine-3-carboxamide] | 100 to 1000 | 10000 to 25000 | – | – | – |
| NC(=O)c1cc(-c2ccc(OCc3cnc(NC4CC4)nc3)cc2)c(C(F)(F)F)[nH]c1=O [Example 163, 5-(4-((2-(cyclopropylamino)pyrimidin-5-yl)methoxy)phenyl)-2-oxo-6-(trifluoromethyl)-1,2-dihydropyridine-3-carboxamide] | 100 to 1000 | 1000 to 5000 | – | – | – |
| COc1ccc(-c2cc(C(N)=O)c(=O)[nH]c2C(F)(F)F)cc1F [Example 14, 5-(3-fluoro-4-methoxyphenyl)-2-oxo-6-(trifluoromethyl)-1,2-dihydropyridine-3-carboxamide] | 1000 to 5000 | 10000 to 25000 | 1000 to 5000 | – | – |
| N#Cc1ccccc1COc1ccc(-c2cc(C(N)=O)c(=O)[nH]c2C(F)(F)F)cc1 [Example 89, 5-(4-((2-cyanobenzyl)oxy)phenyl)-2-oxo-6-(trifluoromethyl)-1,2-dihydropyridine-3-carboxamide] | 100 to 1000 | 100 to 1000 | – | – | – |
